Reference: patent US9499496B2, “Inhibitors of respiratory syncytial virus” (University of Kansas, priority 2012, dated 2016)
Values joined by “and” are separate entries in the source; they are usually repeats but may differ in a detail not shown here. Identical values can stand only once. Like-named read-outs stand apart in the source and are kept apart here.

By UniProt entry, the sequences of proteins in these tests, tags left out. Where a name states a change or a piece, a line headed by the entry shows the natural chain unless it says otherwise.
UniProt P21554, whole entry: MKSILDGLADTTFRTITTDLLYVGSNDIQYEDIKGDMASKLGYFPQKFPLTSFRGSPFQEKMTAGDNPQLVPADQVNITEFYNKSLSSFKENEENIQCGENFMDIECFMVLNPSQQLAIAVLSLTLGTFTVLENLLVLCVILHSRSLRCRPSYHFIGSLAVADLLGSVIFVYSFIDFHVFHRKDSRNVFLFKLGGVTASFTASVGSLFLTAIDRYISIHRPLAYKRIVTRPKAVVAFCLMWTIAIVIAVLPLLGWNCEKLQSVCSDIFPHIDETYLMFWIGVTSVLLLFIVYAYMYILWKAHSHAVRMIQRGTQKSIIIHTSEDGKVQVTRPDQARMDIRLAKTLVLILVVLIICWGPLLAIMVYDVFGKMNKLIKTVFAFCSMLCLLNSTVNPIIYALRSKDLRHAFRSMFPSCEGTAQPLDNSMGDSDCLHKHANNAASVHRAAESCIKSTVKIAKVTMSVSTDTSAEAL
UniProt P41595, whole entry: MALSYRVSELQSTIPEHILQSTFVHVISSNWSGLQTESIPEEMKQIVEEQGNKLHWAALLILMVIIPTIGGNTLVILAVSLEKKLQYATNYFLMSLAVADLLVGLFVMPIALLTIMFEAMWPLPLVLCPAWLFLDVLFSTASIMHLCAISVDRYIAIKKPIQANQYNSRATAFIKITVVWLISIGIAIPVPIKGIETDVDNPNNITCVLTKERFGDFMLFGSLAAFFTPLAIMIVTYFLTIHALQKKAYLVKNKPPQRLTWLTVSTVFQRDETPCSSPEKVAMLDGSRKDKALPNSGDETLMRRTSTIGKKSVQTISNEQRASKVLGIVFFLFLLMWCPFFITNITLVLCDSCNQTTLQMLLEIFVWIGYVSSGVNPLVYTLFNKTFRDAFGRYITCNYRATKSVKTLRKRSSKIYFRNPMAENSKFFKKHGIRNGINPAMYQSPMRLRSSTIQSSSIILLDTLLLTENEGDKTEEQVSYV
UniProt P25105: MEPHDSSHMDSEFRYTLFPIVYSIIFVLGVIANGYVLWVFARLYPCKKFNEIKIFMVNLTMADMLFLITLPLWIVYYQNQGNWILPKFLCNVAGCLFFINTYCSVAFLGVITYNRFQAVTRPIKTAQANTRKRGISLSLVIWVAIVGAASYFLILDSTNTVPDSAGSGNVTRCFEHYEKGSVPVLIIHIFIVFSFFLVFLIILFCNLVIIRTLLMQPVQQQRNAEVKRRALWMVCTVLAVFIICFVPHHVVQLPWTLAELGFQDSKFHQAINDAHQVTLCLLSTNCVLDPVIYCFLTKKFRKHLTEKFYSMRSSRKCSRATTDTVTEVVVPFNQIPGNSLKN
UniProt P23975, whole entry: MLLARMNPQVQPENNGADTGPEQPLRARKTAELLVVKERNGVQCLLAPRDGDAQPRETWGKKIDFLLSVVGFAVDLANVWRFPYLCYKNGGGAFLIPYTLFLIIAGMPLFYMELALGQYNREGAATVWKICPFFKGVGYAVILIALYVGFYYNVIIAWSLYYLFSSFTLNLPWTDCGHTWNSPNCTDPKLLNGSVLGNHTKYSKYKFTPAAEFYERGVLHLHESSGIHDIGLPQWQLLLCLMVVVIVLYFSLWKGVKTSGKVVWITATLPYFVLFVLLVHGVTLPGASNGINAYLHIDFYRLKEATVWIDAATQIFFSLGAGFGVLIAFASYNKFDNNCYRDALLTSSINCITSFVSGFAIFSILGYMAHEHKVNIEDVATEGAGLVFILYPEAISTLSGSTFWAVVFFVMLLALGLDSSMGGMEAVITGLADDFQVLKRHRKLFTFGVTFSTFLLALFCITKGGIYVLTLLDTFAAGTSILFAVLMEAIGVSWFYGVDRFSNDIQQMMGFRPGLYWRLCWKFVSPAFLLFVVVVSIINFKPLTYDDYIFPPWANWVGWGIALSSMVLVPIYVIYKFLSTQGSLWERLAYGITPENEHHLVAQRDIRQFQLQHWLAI
UniProt P0DMS8, whole entry: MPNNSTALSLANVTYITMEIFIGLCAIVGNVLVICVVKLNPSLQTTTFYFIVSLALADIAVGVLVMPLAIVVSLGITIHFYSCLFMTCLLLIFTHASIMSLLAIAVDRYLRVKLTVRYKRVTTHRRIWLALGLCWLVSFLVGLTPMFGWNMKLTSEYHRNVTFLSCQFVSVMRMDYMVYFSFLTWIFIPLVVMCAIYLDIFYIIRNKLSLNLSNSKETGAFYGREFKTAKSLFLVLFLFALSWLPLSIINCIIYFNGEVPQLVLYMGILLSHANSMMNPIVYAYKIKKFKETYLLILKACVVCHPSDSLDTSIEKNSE

Columns and labels:
Solubility in PBS = details: PBS pH 7.4, room temperature (23° C.)
Cannabinoid CB1 = Cannabinoid CB1 (Homo sapiens, UniProt P21554); experiment: biochemical; details: read-out: Percent Inhibition
[1] = target: Serotonin (5-Hydroxytryptamine) 5-HT2B (Homo sapiens, UniProt P41595); experiment: biochemical; details: read-out: Percent Inhibition
[2] = target: human platelet activating factor (Homo sapiens, UniProt P25105); experiment: biochemical
[3] = target: Transporter, Norepinephrine (NET) (Homo sapiens, UniProt P23975); experiment: biochemical; details: read-out: Percent Inhibition
[4] = target: human adenosine A3 receptor (Homo sapiens, UniProt P0DMS8); experiment: biochemical
[5] = Solubility in RSV CPE assay media; details: DMEM/F12, Pen/Strep/Glutamine, 2% heat inactivated FBS
in vitro = details: human
RSV = RSV CPE assay (inhibition of RSV-induced cytopathic effect, luminescent cell viability readout); type: cell-based, RSV (strain Long); details: antiviral activity over HEp-2 cell cytotoxicity

Q: What does the source list for COCCCNC(=O)c1ccc(Cn2c(=O)c3ccccc3n(Cc3ccc(C(C)C)cc3)c2=O)cc1 [Compound A, 4-((1-(4-isopropylbenzyl)-2,4-dioxo-1,2-dihydroquinazolin-3(4H)-yl)methyl)-N-(3-methoxypropyl)benzamide]?
A: PBS Solubility (Solubility in PBS): 0.18 μg/mL and 0.36 μM; inhibition at 10 µM (Cannabinoid CB1): 86%; PAMPA Permeability (Donor pH 5.0, Acceptor pH 7.4, 20% acetonitrile added): 718 ×10⁻⁶ cm/s; PAMPA Permeability (Donor pH 6.2, Acceptor pH 7.4, 20% acetonitrile added): 631 ×10⁻⁶ cm/s; PAMPA Permeability (Donor pH 7.4, Acceptor pH 7.4, 20% acetonitrile added): 703 ×10⁻⁶ cm/s; inhibition at 10 µM [1]: 54%; inhibition at 10 µM [2]: 43%; inhibition at 10 µM [3]: 54%; inhibition at 10 µM [4]: 44%; CPE Assay Media Solubility [5]: 5.1 μg/mL and 10.21 μM

Q: Which results are given for COCCCNC(=O)c1ccc(Cn2c(=O)c3ccccc3n(Cc3ccc([N+](=O)[O-])cc3)c2=O)cc1 [Compound B, N-(3-methoxypropyl)-4-((1-(4-nitrobenzyl)-2,4-dioxo-1,2-dihydroquinazolin-3(4H)-yl)methyl)benzamide]?
A: PAMPA Permeability (Donor pH 5.0, Acceptor pH 7.4, PBS, no additives): 364 ×10⁻⁶ cm/s; PAMPA Permeability (Donor pH 6.2, Acceptor pH 7.4, PBS, no additives): 349 ×10⁻⁶ cm/s; PAMPA Permeability (Donor pH 7.4, Acceptor pH 7.4, PBS, no additives): 356 ×10⁻⁶ cm/s; CPE Assay Media Solubility [5]: 1.4 μg/mL = and 2.79 μM

Q: For Cc1ccc(Cn2c(=O)n(Cc3ccc(C(=O)NCC4COC4)cc3)c(=O)c3ccccc32)cc1 [Compound F, 4-((1-(4-methylbenzyl)-2,4-dioxo-1,2-dihydroquinazolin-3(4H)-yl)methyl)-N-(oxetan-3-ylmethyl)benzamide], which CC50 (in vitro) is on record?
A: 47 ± 1.9 µM

Q: And the “Selectivity Index (CC50/EC50)” value (RSV)?
A: 66.1 and 41.8

Q: And the “Selectivity Index (CC50/EC50)” value (RSV; listed as FIG. 4, entry 8)?
A: 66

Q: With COCCCNC(=O)c1ccc(Cn2c(=O)c3ccccc3n(Cc3ccc(C)cc3)c2=O)cc1 [hit compound, 4-((1-(4-methylbenzyl)-2,4-dioxo-1,2-dihydroquinazolin-3(4H)-yl)methyl)-N-(3-methoxypropyl)benzamide] as the compound, how does the “PBS Solubility” value (Solubility in PBS) read?
A: 0.13 µM

Q: And the “Selectivity Index (CC50/EC50)” value (RSV)?
A: ~28

Q: Which “Selectivity Index (CC50/EC50)” value (RSV) does the source give for NC(=O)c1ncn([C@@H]2O[C@H](CO)[C@@H](O)[C@H]2O)n1 [ribavirin, reference compound] here?
A: 3.6
